# AlphaSeq binding of Ab-14 light chain variants to a spike HR2 peptide

All variants were tested on one target, the spike HR2 peptide PDVDLGDISGINAS (SARS-CoV-2).

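The starting antibody came from a phage panning campaign against this peptide. This is the validation round: designs drawn from the data on random variants, tested in the same kind of assay. Several design methods are mixed in this list. Affinity was read by AlphaSeq, a pooled yeast mating assay with surface-displayed partners. After mating in shaken culture at 30 °C for 16 h, diploids were selected and their barcode pairs sequenced. Each replicate has its own calibration line, from reference interactions of the BCL2 family. The assay was run in six technical replicates.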

Parent scFv Ab-14: VH joined to VL by a 15-residue (Gly4Ser)3 linker. Changes lie in the light chain CDRs alone.
VH: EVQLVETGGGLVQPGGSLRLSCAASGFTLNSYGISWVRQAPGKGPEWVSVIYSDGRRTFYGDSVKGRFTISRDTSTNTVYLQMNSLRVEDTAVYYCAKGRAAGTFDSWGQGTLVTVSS
VL: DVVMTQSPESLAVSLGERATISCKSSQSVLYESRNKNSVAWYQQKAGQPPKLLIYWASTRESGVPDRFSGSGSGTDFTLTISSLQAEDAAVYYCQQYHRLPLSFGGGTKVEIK

Substitutions are numbered in sequence along the VL above, starting at 1 (not Kabat). This list holds designs with at most six substitutions. The Kd shown is the geometric mean over detected replicates; a lower Kd is a better binder. "no signal" marks a missing value. The strain was present, yet no cells mated with the target were sequenced in any replicate, which points to weak or no binding.

- S25L S26R V29T W56L T59L = 25 nM (6 of 6 replicates)
- L30S N37P = no signal (0 of 6 replicates)
- S25L V29F W56G Q96A P101T = 1.7 nM (6 of 6 replicates)
- S25L V29D W56N = 350 pM (6 of 6 replicates)
- S28T Y31M S38E = 170 nM (1 of 6 replicates)
- S25I W56M R99V = 1.4 nM (6 of 6 replicates)
- S25L V29T N35M W56N T59Q = 740 pM (6 of 6 replicates)
- S38N W56H S62D H98A = no signal (0 of 6 replicates)
- Q27I Y31K R34N W56N Y97W R99I = no signal (0 of 6 replicates)
- S25L S26Q V29D W56G T59Q = 13 nM (6 of 6 replicates)
- S25L S33E W56S T59Q = 510 pM (6 of 6 replicates)
- R34N Y97P = 89 nM (6 of 6 replicates)
- S25F S26P L30G E32Q W56D = 2.0 nM (6 of 6 replicates)
- S25L V29F W56N Q96D = 730 pM (6 of 6 replicates)
- S28E = 52 nM (2 of 6 replicates)
- Y31Q W56N H98P = 11 nM (6 of 6 replicates)
- S25L V29E W56N E61M S62D = 390 pM (6 of 6 replicates)
- Y31A N35E Q95N = no signal (0 of 6 replicates)
- V29P R34W = no signal (0 of 6 replicates)
- S25L V29F K36W W56A T59K = 3.7 nM (6 of 6 replicates)
- S25L S26T E61D H98W L102I = 120 nM (4 of 6 replicates)
- S25H Q27I L30H Y31G S33D W56D = 900 pM (6 of 6 replicates)
- Y31F E32G W56D = 1.4 nM (6 of 6 replicates)
- S25L S26Q V29H N35M W56N E61L = 1.5 nM (6 of 6 replicates)
- R34L V39I Q95P = no signal (0 of 6 replicates)
- Q27I V29Y R34E N37R W56N T59Q = 5.6 nM (6 of 6 replicates)
- S25L S26Y Y31S S103D = no signal (0 of 6 replicates)
- S25L V29W S38N W56N Q96D = 260 pM (6 of 6 replicates)
- S25L N35Q W56N = 290 pM (6 of 6 replicates)
- S26G S28G K36Q W56G T59L = 2.2 nM (6 of 6 replicates)
- S25L K36S W56N T59Q = 940 pM (6 of 6 replicates)
- Y31D S33D R99V = no signal (0 of 6 replicates)
- S25Q Q27D L30D Y31Q W56D = 750 pM (6 of 6 replicates)
- S25L N35M W56G T59Q = 630 pM (6 of 6 replicates)
- R34A K36T = 42 nM (6 of 6 replicates)
- Q27I V29Y S33E W56A = 1.2 nM (6 of 6 replicates)
- S25L S26Q L30E W56H S62D = 1.5 nM (6 of 6 replicates)
- K24H Y31Q S62W H98A L102P = no signal (0 of 6 replicates)
- S25L V29N W56N S62M = 540 pM (6 of 6 replicates)
- R34M K36L T59E = 37 nM (6 of 6 replicates)
- K24S S25F N35M W56N = 630 pM (6 of 6 replicates)

Again, the first 6 entries without any signal:

* L30S N37P: no signal (0 of 6 replicates)
* S38N W56H S62D H98A: no signal (0 of 6 replicates)
* Q27I Y31K R34N W56N Y97W R99I: no signal (0 of 6 replicates)
* Y31A N35E Q95N: no signal (0 of 6 replicates)
* V29P R34W: no signal (0 of 6 replicates)
* R34L V39I Q95P: no signal (0 of 6 replicates)

Background: pairings of all light chain designs with three empty control strains gave a value in 4% of cases (median 430 nM, 5th percentile 38 nM). Values in that range, when seen in few replicates, are hard to tell from nonspecific mating. A sequence measured in both rounds can read differently, since the two assays cover different ranges. In the paper, a design with two or fewer of six values counts as a poor binder.

From the AlphaSeq antibody data of Li et al. 2023 (doi:10.1038/s41467-023-39022-2), copy in the FLAb collection.